We go through 1 molecule from patent US20250353891A1 (MEDIMMUNE LIMITED, priority 2022, published 2025).

Each structure is given as a SMILES string.

A short description of this data set: Pharmacokinetic profiling in non-human primate (i.v., s.c.). The conditions noted are these: cynomolgus monkey, in vivo, 10 nmol/kg. From the text: Selected test peptides (n=8) were profiled for pharmacokinetic (PK) properties in the mouse after single intravenous (i.v.) or subcutaneous (s.c.) dose. A subset (n=4) meeting the acceptance criteria was subsequently profiled in the dog (single i.v. dose) and non-human primate (single i.v. and s.c. dose). […] Low-binding plasticware containers were used during preparation and sample handling to avoid non-specific binding.
Non-human primate: PK was studied in non-naïve male cynomolgus monkeys. After dosing, PK samples were collected from the femoral vein. Blood of each sample was transferred into plastic micro centrifuge tubes containing EDTA-K2, inverted several times for proper mixing of contents and then placed on wet ice. […]
Samples analysis: Samples were analyzed by LC-MS/MS. Calibration standards were injected at the beginning and end of each batch and the determined concentration for each prepared standard was used to construct a calibration curve. Plasma and dose aliquot sample concentrations were determined from the plasma calibration curve.
Data analysis: Plasma concentration data was analyzed by non-compartmental analysis (NCA) using Phoenix Winnonlin v. […] Subcutaneous bioavailability was calculated as the ratio AUC(s.c.)0-inf/AUC(i.v.)0-inf. […]

As for `CC(C)C[C@H](NC(=O)[C@H](Cc1c[nH]c2ccccc12)NC(=O)[C@H](CCC(N)=O)NC(=O)[C@@H](NC(=O)[C@H](Cc1ccccc1)NC(=O)[C@H](CC(=O)O)NC(=O)[C@H](CCCNC(=N)N)NC(=O)[C@H](C)NC(=O)[C@H](CCCNC(=N)N)NC(=O)[C@H](CCCCNC(=O)COCCOCCNC(=O)COCCOCCNC(=O)CC[C@H](NC(=O)CCCCCCCCCCCCCCCCCCC(=O)O)C(=O)O)NC(=O)[C@@H](NC(=O)[C@H](CC(=O)O)NC(=O)[C@H](CC(C)C)NC(=O)[C@](C)(Cc1ccccc1)NC(=O)[C@H](CCCCN)NC(=O)[C@H](CO)NC(=O)[C@@H](NC(=O)[C@H](CC(=O)O)NC(=O)[C@H](CO)NC(=O)[C@@H](NC(=O)[C@H](Cc1ccccc1)NC(=O)[C@@H](NC(=O)CNC(=O)[C@H](CCC(N)=O)NC(=O)C(C)(C)NC(=O)[C@@H](N)Cc1c[nH]cn1)[C@@H](C)O)[C@@H](C)O)C(C)C)[C@@H](C)O)C(C)C)C(=O)N[C@@H](CC(C)C)C(=O)N[C@@H](CCC(=O)O)C(=O)NC(C)(C)C(=O)NCC(=O)O` [Peptide 195, H-Aib-Q-G-T-F-T-S-D-V—S-K-αMePhe-L-D-T-K-R-A-R-D-F-V-Q-W-L-L-E-Aib-G-acid], the bioavailability was determined as 77%.

By bioavailability is commonly meant the share of a dose that reaches the circulation, judged against a reference dose that is usually intravenous. Read a low bioavailability as little systemic uptake.
